The target of this experiment is T1, talin R8 domain.
T1 construct: talin rod domain R8 (four-helix bundle), isolated domain used 15N-labelled for NMR; Construct limits, host and species are probably in the Supplemental Experimental Procedures; also called [15N]talin R8 domain
Kind of experiment: NMR titration; KD fitted from 1H,15N-HSQC chemical-shift changes; 0.1 mM 15N talin R8, peptide/protein ratios 0.1 to 8; 298 K, 20 mM sodium phosphate pH 6.5, 50 mM NaCl. The following applies: both partners purified.

SSEDIDQMFSTLLGEMDLLTQSLGVDT [RIAM peptide (talin binding site)]: the Kd amounted to 3.5 µM.
